The text below walks through data of article PMC3873911, “A Single-Nucleotide Polymorphism of Human Neuropeptide S Gene Originated from Europe Shows Decreased Bioactivity” (PLoS ONE, 2013).

This assay concerns the target T1, CCKB (Homo sapiens, UniProt P32239).
T1 construct: expressed in transfected cells; host or cells: HEK293T (inferred from the general luciferase protocol)
T1 sequence (P32239 1-447): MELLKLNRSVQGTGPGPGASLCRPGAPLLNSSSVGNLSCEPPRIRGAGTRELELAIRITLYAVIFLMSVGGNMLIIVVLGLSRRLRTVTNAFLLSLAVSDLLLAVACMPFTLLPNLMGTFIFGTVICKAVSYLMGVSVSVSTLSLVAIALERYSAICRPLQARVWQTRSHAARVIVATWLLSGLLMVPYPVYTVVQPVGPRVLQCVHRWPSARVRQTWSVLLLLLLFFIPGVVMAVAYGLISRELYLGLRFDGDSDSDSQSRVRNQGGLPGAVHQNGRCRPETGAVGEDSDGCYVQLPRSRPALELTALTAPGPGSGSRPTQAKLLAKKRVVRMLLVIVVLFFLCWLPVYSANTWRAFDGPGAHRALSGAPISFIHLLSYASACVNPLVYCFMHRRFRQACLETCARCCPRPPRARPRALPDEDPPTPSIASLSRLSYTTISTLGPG
Put plainly: SRE-luciferase assay, gastrin-CCKB ligand-receptor pair (positive control). As to conditions: Fig. S4. In kind it is cell-based.

Take gastrin: the “stimulation of SRE-luciferase via CCKB” value is given as “normal stimulation”.
